Assay results published in US4824860A, “Treatment of Parkinsons disease” (priority 1987, dated 1989).

System: 5HT2 receptors
Experiment: Receptor binding studies using rat brain: 5HT2

Row | Compound | affinity for 5HT2 receptors
1 | CC(C)C[C@H]1C(=O)N2CCC[C@H]2[C@]2(O)O[C@](NC(=O)[C@@H]3C=C4c5cccc6[nH]c(Br)c(c56)C[C@H]4N(C)C3)(C(C)C)C(=O)N12 [bromocriptine, reference compound] | showed affinity
2 | CCCN1C[C@H](CSC)C[C@@H]2c3cccc4[nH]cc(c34)C[C@H]21 [pergolide] | showed affinity
